Results published in patent publication US20090118135A1, “METHODS AND COMPOUNDS FOR REGULATING APOPTOSIS” (The Burnham Institute, priority 2007, published 2009).

What was measured:
[1] = target: T1, GST-Bcl-B (Homo sapiens, UniProt Q9HD36); assay: Bcl-B/FITC-TR3-r8 fluorescence polarization competition (displacement) assay, HTS and dose-response
T1 sequence (Q9HD36 1-182 limits assumed): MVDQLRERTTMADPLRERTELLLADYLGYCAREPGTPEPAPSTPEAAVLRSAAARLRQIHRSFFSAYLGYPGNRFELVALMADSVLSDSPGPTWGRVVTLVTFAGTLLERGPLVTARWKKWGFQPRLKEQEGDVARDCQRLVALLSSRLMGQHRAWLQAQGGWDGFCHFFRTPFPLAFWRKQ

[2] = target: T2, GST-Bfl-1 (Homo sapiens, UniProt Q16548); assay: Bfl-1/FITC-Bid BH3 competitive fluorescence polarization assay; type: binding
T2 construct: lacking their C-terminal transmembrane domains (about the last 20 amino acids) (“ΔTM”); made in house; host or cells: XL-1 Blue E. coli, pGEX 4T-1
T2 sequence (Q16548 1-155 limits assumed): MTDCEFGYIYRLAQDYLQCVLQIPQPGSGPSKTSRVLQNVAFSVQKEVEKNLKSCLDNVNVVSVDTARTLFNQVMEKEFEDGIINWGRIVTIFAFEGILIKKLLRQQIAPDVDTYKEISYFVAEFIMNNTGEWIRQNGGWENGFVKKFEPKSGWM
Experimental: A FPA was performed to determine the binding affinity of FITC-Bid BH3 peptide to Bcl-2 proteins. Serial concentrations of Bcl-2 proteins were incubated with 5 nM FITC-Bid BH3 peptide (FITC-Ahx-[…]; SEQ ID NO: 55) in PBS using a 96 well black plate (Greiner bio-one). […] IC50 determinations were performed using GraphPad Prism software (GraphPad, Inc., San Diego, Calif.). FPA competition assays were performed using the same procedure described above, except that 100 nM of GST-Bfl-1 protein in a volume of 45 μl was incubated with 5 μl (50 μM) test compounds in DMSO per well for 30 min prior to addition of 50 μl (5 nM) FITC-Bid BH3 peptide. The final DMSO concentration was 5% when the reactions brought to fall volume of 100 μl. Fluorescence polarization was measured after 10 min. Compounds that reduced the fluorescence polarization by 50% were considered hits.

For `COc1ccc2c(c1)c1c(C)c3cnccc3c(C)c1n2CCCN.Cl` [Compound 176327], the “Is Hit” value [1] was “Yes” and the inhibition at 0.02 µM ([1]; read-out: Result Value (Result Type % Inhibition), BCL-b/TR3) was 107%.
In the case of `O=C(OC1CCCCC1)c1ccc2c(c1)C1C=CCC1C(C(=O)O)N2` (stereo not shown) [Compound 4249621], the “% Activity” value [2] is reported as 78.5% and the FRatio [2] is reported as 0.38.
